BindingDB's records for doi:10.1016/0922-4106(95)90072-1 (Cocensys, 1995)

The chains behind the UniProt entries cited, without tags or fusion partners.
UniProt Q16445, whole entry: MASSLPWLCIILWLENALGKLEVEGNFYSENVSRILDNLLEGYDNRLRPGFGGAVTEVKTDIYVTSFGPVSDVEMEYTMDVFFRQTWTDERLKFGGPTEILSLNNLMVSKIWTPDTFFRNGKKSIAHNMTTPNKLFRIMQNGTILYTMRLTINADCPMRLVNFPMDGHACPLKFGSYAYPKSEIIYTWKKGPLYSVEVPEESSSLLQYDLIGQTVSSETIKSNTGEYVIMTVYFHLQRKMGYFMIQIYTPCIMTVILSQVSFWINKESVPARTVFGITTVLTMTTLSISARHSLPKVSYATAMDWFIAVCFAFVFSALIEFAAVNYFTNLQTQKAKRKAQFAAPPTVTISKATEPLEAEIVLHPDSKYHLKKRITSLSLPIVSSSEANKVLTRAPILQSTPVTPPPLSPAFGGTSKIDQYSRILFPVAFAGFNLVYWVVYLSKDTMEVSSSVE
UniProt P48169, whole entry: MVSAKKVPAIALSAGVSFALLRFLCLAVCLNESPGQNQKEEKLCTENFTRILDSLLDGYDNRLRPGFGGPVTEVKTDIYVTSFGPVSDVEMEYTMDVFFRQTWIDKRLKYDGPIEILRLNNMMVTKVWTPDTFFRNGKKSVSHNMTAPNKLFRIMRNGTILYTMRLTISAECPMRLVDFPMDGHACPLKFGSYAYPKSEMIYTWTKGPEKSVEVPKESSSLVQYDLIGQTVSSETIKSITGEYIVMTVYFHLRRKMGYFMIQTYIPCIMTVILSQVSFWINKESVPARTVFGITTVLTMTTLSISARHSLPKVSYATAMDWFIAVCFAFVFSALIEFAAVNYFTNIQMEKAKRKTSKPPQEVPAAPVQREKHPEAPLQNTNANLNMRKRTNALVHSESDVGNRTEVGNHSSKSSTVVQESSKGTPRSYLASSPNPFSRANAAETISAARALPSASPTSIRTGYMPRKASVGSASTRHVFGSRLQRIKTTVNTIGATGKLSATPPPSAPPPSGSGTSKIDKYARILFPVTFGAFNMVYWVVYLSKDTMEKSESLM

Tests used:
[1] = biological target: Gamma-aminobutyric acid receptor subunit alpha-6 (Homo sapiens, UniProt Q16445)
[2] = biological target: Gamma-aminobutyric acid receptor subunit alpha-4 (Homo sapiens, UniProt P48169)

Row | SMILES | Ki [1] [nM] | Ki [2] [nM]
1 | CCOC(=O)c1cc2c(cn1)[nH]c1ccccc12 | 4460 | 
2 | CCOC(=O)c1ncn2c1CN(C)C(=O)c1cc(N=[N+]=[N-])ccc1-2 [RO-154513] |  | 2.62
